Measurements taken from ChEMBL document CHEMBL1124268, “Approaches to protection against nerve agent poisoning. (Naphthylvinyl)pyridine derivatives as potential antidotes” (1988).

System: Cavia porcellus
Test: Protective ratio - quotient of LD50 of the treated group (guinea pig) over that of soman alone at given dose 92 (uM/Kg, id)
Conditions: in vivo, other

With `C[n+]1ccc(/C=C/c2cccc3ccccc23)cc1.[Cl-]` the Protective ratio was 76.
